In patent US20060242739A1, “Plant nucleotide-sugar pyrophosphatase/phosphodiesterase (nppase), method of obtaining same and use of same in the production of assay devices and in the production of transgenic plants” (Universidad Publica De Navarra, priority 2002, published 2006):

Biological target: T1, NPPase from barley leaves (Hordeum vulgare, UniProt Q687E1)
T1 sequence (Q687E1 19-368): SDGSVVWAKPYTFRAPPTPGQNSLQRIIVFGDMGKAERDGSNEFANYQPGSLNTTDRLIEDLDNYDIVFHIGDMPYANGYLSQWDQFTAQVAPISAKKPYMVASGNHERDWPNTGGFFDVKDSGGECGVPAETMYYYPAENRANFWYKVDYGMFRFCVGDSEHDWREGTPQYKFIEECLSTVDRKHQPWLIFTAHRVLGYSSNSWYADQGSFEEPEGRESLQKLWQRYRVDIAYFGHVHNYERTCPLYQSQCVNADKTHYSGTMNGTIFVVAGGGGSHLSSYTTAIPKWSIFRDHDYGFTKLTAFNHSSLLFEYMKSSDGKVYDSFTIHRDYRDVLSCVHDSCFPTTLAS
Experiment: Enzymatic test of soluble NPPase from barley leaves: kinetic parameters, substrate specificity, effectors

For `Nc1ncnc2c1ncn2[C@@H]1O[C@H](COP(=O)(O)OP(=O)(O)OP(=O)(O)O)[C@@H](O)[C@H]1O` [ATP], the Vmax (Vmax in % in relation to ADPG, NPPase from barley leaves) was 40% and the “effect on NPPase activity (inhibition)” value (qualitative) was “inhibited”.
